Source: patent publication US20220213197A1 (priority 2019, published 2022)

Test system: Mycobacterium tuberculosis
Assay: Antituberculosis activity in guinea pig model of experimental tuberculosis
Conditions: in vivo

For NNC(=O)c1ccncc1 [placebo + isoniazid, Isoniazid], the “Isolation of MTB when lung tissue homogenates are inoculated on solid culture media, units.” value was 0 ± 0 units.
